Test results from patent US8580762B2, “Substituted purine and 7-deazapurine compounds” (Epizyme, Inc., priority 2010, dated 2013).

Protein sequences, listed by entry. Tags and fused reporters are not part of them. Residues count along the entry.
UniProt Q8TEK3, 1-416: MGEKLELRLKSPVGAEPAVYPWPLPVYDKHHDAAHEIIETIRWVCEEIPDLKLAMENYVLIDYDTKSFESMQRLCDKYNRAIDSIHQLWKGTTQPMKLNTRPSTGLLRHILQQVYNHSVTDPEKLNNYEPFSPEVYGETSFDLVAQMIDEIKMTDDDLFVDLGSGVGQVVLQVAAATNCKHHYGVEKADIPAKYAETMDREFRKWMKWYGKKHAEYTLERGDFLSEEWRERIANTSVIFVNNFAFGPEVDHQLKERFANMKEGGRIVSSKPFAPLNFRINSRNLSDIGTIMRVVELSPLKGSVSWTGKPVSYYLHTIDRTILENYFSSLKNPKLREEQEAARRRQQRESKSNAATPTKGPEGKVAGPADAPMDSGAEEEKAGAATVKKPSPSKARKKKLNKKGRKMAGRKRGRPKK

target: DOT1L(1-416) (Homo sapiens, UniProt Q8TEK3); assay: Determination of IC50: DOT1L(1-416) methyltransferase assay, 3H-SAM, oligonucleosome substrate, Flashplate; type: biochemical; details: not given
Experimental: Determination of IC50. Test compounds were serially diluted 3 fold in DMSO for 10 points and 1 μl was plated in a 384 well microtiter plate. […] 10 μl per well of substrate mix (same assay buffer with 200 nM S-[methyl-^3H]-adenosyl-L methionine, 600 nM of unlabeled […], and 20 nM oligonueleosome) was added to initiate the reaction. Reaction was incubated for 120 minutes at room temperature and quenched with 10 μl per well of 100 μM S-methyl-adenosyl-L methionine. For detection, substrate from 50 μl of reaction was immobilized on a 384 well Streptavidin coated Flashplate (Perkin Elmer) (also coated with 0.2% polyethyleneimine) and read on a Top Count scintillation counter (Perkin Elmer).

Compound | IC50 [nM]
CN(C[C@H]1C[C@@H](n2ccc3c(N)ncnc32)[C@H](O)[C@@H]1O)[C@H]1C[C@@H](CCc2nc3cc(C(C)(C)C)ccc3[nH]2)C1 [Compound 69, (1R,2S,3R,5R)-3-(4-amino-7H-pyrrolo[2,3-d]pyrimidin-7-yl)-5-((((1r,3S)-3-(2-(5-(tert-butyl)-1H-benzo[d]imidazol-2-yl)ethyl)cyclobutyl)(methyl)amino)methyl)cyclopentane-1,2-diol] | 2.51

same assay, conditions: class symbols

IC50 [nM] | Compound
< 100 | CN(C[C@H]1C[C@@H](n2ccc3c(N)ncnc32)[C@H](O)[C@@H]1O)[C@H]1C[C@H](CCc2nc3cc(C(C)(C)C)ccc3[nH]2)C1 [Compound 70, (1R,2S,3R,5R)-3-(4-amino-7H-pyrrolo[2,3-d]pyrimidin-7-yl)-5-((((1s,3R)-3-(2-(5-(tert-butyl)-1H-benzo[d]imidazol-2-yl)ethyl)cyclobutyl)(methyl)amino)methyl)cyclopentane-1,2-diol]
< 100 | CN(C[C@H]1C[C@@H](n2ccc3c(N)ncnc32)[C@H](O)[C@@H]1O)[C@H]1C[C@H](CCc2nc3cc(C(C)(C)C)ccc3[nH]2)C1 (single isomer, unassigned) [Compound 35]
< 100 | CN(C[C@H]1C[C@@H](n2ccc3c(N)ncnc32)[C@H](O)[C@@H]1O)C1CC(CCc2nc3cc(C(C)(C)C)ccc3[nH]2)C1 (stereo partly drawn) [Compound 14, (1R,2S,3R,5R)-3-(4-amino-7H-pyrrolo[2,3-d]pyrimidin-7-yl)-5-(((3-(2-(5-(tert-butyl)-1H-benzo[d]imidazol-2-yl)ethyl)cyclobutyl)(methyl)amino)methyl)cyclopentane-1,2-diol]

Compound | IC50 [nM]
CN(C[C@H]1C[C@@H](n2ccc3c(N)ncnc32)[C@H](O)[C@@H]1O)[C@H]1C[C@@H](CCc2nc3cc(C(C)(C)C)ccc3[nH]2)C1 [Compound 69, (1R,2S,3R,5R)-3-(4-amino-7H-pyrrolo[2,3-d]pyrimidin-7-yl)-5-((((1r,3S)-3-(2-(5-(tert-butyl)-1H-benzo[d]imidazol-2-yl)ethyl)cyclobutyl)(methyl)amino)methyl)cyclopentane-1,2-diol] | < 100
CN(C[C@H]1C[C@@H](n2ccc3c(N)ncnc32)[C@H](O)[C@@H]1O)[C@H]1C[C@@H](CCc2nc3cc(C(C)(C)C)ccc3[nH]2)C1 (single isomer, unassigned) [Compound 32] | < 100
